Measured values: patent US20250215026A1, “Deuterated Compounds, Compositions and Uses” (BioJive LLC, priority 2018, published 2025)
Like-named read-outs stand apart in the source and are kept apart here.

Conditions: FIG. 2B

With `[2H]C([2H])(/C=C\CCCCC)/C=C\CCCCCCCC(=O)O[C@H](COC(=O)CCCCCCCCCCCCCCCCC)COP(=O)([O-])OCC[N+](C)(C)C` [D2-Lin-PC, 1-stearoyl-2-(11,11-D2-linoleyl)-sn-glycero-3-phosphatidylcholine] the “ΔA234 time course after addition of Fe2+/ascorbate” value (high content of D2-Lin-PC) was “did not increase” and the “ΔA234 time course after addition of Fe2+/ascorbate” value (low percentage of D2-Lin-PC) was “increased considerably”.
